Measurements as given in patent publication US20230159489A1, “PHD INHIBITOR COMPOUNDS, COMPOSITIONS, AND USE” (Akebia Therapeutics, Inc., priority 2020, published 2023).

Chains of the proteins cited; added tags and fusions are not shown. Lines headed by an entry give the natural chain unless they say otherwise; changes in a name come on top.
UniProt Q9GZT9: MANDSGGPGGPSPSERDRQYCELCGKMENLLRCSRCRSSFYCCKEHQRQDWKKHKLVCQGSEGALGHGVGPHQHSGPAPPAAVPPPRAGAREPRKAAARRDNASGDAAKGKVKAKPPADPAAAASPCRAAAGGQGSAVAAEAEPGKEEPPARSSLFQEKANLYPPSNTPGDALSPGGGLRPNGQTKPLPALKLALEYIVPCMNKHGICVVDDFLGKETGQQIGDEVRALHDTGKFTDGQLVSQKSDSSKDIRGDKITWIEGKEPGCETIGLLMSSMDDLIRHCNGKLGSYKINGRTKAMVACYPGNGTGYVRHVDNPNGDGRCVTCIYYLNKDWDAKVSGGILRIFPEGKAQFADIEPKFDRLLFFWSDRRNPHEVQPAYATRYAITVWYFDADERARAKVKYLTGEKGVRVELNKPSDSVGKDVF

Biological target: full-length human PHD2 (Homo sapiens, UniProt Q9GZT9)
Assay: TR-FRET assay, enzymatic IC50 against PHD2
Details: read-out: Km of 2-OG for PHD2

`O=C(O)CCC(=O)C(=O)O` [Compound 2-OG, 2-oxoglutarate, reference compound] gave a Km of 0.0226 µM.
